In patent US20060029995A1, “Novel class of metacaspases” (Vlaams Interuniversitair Instituut Voor Biotechnologie VZW, priority 2003, published 2006):

Tests used:
[1] = target: T1, Atmc9 (Arabidopsis thaliana, UniProt Q9FYE1); assay type: biochemical; conditions: for Activity (%): pH 5.3
T1 construct: it indeed consists of amino acids 184 to 325 (calculated mass 15427 Da); made in house; host or cells: E. coli BL21(DE3), pDEST17, Ni-NTA purified
T1 sequence (Q9FYE1 1-183 limits assumed): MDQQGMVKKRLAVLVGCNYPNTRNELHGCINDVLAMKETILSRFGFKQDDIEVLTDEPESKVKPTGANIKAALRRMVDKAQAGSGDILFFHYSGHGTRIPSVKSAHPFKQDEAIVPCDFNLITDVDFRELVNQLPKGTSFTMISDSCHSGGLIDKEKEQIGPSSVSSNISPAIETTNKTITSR
T1 sequence (Q9FYE1 184-325 limits assumed): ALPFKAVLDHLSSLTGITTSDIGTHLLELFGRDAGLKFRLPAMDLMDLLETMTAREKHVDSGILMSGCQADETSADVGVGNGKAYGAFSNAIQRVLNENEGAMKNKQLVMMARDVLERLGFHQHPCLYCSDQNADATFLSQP
Procedure: Assays were performed in 150 μl with 400 ng of purified Atmc9 and 50 μM substrate in an optimized metacaspase 9 assay buffer (50 mM MES pH 5.3, 10% (w/v) sucrose, 0.1% (w/v) 3-[(3-cholamidopropyl)dimethylammonio]-1-propanesulfonate [CHAPS], 10 mM DTT). Time-dependent release of free amido-4-methylcoumarin (AMC) was measured on a Cytofluor 4000 fluorescence microplate reader (PerSeptive Biosystems, Farmingham, Md., USA).
We also assessed the sensitivity of Atmc9 for several protease inhibitors, chelating agents, metal ions, and stabilizing agents in the GKR-ase assay (Table 2). […] To optimize the assay conditions for Atmc9 activity, several stabilizing agents were tested.
Percentage of the activity of recombinant Atmc9 in 50 mM MES (pH 5.3) and 10 mM DTT.

[2] = target: T2, metacaspase 3 (Arabidopsis thaliana, UniProt Q9FMG1); experiment: Cleavage of fluorescent artificial substrates by purified metacaspase 3; assay type: biochemical; conditions: assay buffers of pHs ranging from 4.5 to 9.0 (MES 50 mM)
T2 construct: made in house; host or cells: bacterial production, pDEST17 (E. coli by the general method)
T2 sequence (Q9FMG1 1-362 R151K/L157V/V158I/Q177E): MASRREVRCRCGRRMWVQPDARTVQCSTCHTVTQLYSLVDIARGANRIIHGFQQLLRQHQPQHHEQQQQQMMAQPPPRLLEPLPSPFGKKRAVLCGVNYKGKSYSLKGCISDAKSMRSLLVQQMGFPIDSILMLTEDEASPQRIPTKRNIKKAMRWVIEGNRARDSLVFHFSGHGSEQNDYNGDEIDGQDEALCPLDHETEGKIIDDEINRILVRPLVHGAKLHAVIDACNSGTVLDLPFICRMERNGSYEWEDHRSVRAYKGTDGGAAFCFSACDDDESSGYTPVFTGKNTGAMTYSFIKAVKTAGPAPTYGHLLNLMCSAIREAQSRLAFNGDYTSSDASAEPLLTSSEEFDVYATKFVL
Text: For generation of the prodomain deletion mutant of Arabidopsis thaliana metacaspase 3 (MC3ΔN), residues 1 to 91 were replaced by a methionine residue by PCR, using 5′-[…]-3′ (SEQ ID NO:43) as the forward primer and 5′-[…]-3′ (SEQ ID NO:17) as the reverse primer. 5′ extensions used for Gateway™ (Invitrogen) cloning were 5′-[…]-3′ (SEQ ID NO:44) for forward primers and 5′-[…]-3′ (SEQ ID NO:45) for reverse primers. For bacterial production, the cDNA's were cloned into the bacterial expression vector pDEST17™ (Invitrogen), resulting in the amino-terminal translational addition of the following HIS6 tag-containing sequence: […] (SEQ ID NO:37).
Activity of purified metacaspase 3 was tested with different fluorescent substrates in assay buffers of pHs ranging from 4.5 to 9.0 (MES 50 mM). The substrates tested were: Ac-DEVD-AMC, Z-VAD-AMC, Boc-GRR-AMC, Boc-GKR-AMC, Z-FR-AMC and H-AFK-AMC. Only Z-FR-AMC was cut by metacaspase 3.

[3] = target: T1, Atmc9; experiment: kcat/Km of artificial substrates of Atmc9; assay type: biochemical; conditions: summary of Table 1
Procedure: The activity assay buffer used was composed of 50 mM MES pH 5.3, 10% (w/v) sucrose, 0.1% (w/v) 3-[(3-cholamidopropyl)dimethylammonio]-1-propanesulfonate [CHAPS], 10 mM DTT.
The concentration of active sites in the preparation of rAtmc9 was determined by active site titration with the irreversible inhibitor Z-FK-2,4,6-trimethylbenzoyloxymethyl ketone (Z-FK-tbmk; Enzyme Systems Products, Livermore, Calif., USA) to be 30 μM.
For determination of kcat/Km, 50 μl of 20 μM of the tested substrates (t-butyloxycarbonyl-Gly-Lys-Arg-7-amido-4-methylcoumarin (Boc-GKR-AMC); t-butyloxycarbonyl-Gly-Arg-Arg-7-amido-4-methylcoumarin (Boc-GRR-AMC); benzyloxycarbonyl-Phe-Arg-AMC (Z-FR-AMC); H-Ala-Phe-Lys-7-amido-4-methylcoumarin (H-AFK-AMC)) was mixed with 50 μl 600 nM rAtmc9 (final concentrations 300 nM rAtmc9 and 10 μM substrate). Release of free AMC was determined in a time course using a FLUOstar Optima fluorescence plate reader (BMB Lab Technologies, Offenburg, Del.). After total hydrolysis of the substrates, kcatlKm was calculated using the following formula: kcat/Km=kobsIEt, where kobs is determined as the decrease per second of the natural logarithm of substrate left, and Et is the concentration of enzyme active sites in the reaction.

[4] = target: Aprotinin, P00974
[5] = target: T3, Z-FA-fluoromethyl ketone
T3 chain: FA

## Z-FA-fluoromethyl ketone [Z-FA-fmk]
[1]; at concentrations up to 100 μM
  effect on Atmc9 activity: no effect
[1]
  Activity (%): 109%

## Z-FK-2,4,6-trimethylbenzoyloxymethyl ketone [Z-FK-tbmk]
[1]; at the micromolar range
  inhibition of Atmc9 activity: inhibited
[1]
  Activity (%): 33%

## benzyloxycarbonyl-Phe-Arg-AMC (FR) [Z-FR-AMC]
[2]
  cleavage by metacaspase 3: cut
[3]
  quality as substrate for Atmc9: good substrates

B1: N-terminally HIS6-tagged Atmc9 (bacterially produced) (protein)
chain: MSYYHHHHHHLESTSLYKKAGSTMDQQGMVKKRLAVLVGCNYPNTRNELHGCINDVLAMKETILSRFGFKQDDIEVLTDEPESKVKPTGANIKAALRRMVDKAQAGSGDILFFHYSGHGTRIPSVKSAHPFKQDEAIVPCDFNLITDVDFRELVNQLPKGTSFTMISDSCHSGGLIDKEKEQIGPSSVSSNISPAIETTNKTITSRALPFKAVLDHLSSLTGITTSDIGTHLLELFGRDAGLKFRLPAMDLMDLLETMTAREKHVDSGILMSGCQADETSADVGVGNGKAYGAFSNAIQRVLNENEGAMKNKQLVMMARDVLERLGFHQHPCLYCSDQNADATFLSQP
[4]
  Activity (%) of Atmc9 with Boc-GKR-AMC as substrate, reagent at 5 µg/ml: 96%
[5]
  Activity (%) of Atmc9 with Boc-GKR-AMC as substrate, reagent at 100 µM: 109%
